Measured values as given in publication PMC8394532, “Structural and Functional Insights into the Biofilm-Associated BceF Tyrosine Kinase Domain from Burkholderia cepacia” (Biomolecules, 2021).

Test system: Nc1ncnc2c1ncn2[C@@H]1O[C@H](COP(=O)(O)OP(=O)(O)OP(=O)(O)O)[C@@H](O)[C@H]1O
Test: purified protein
Conditions: co-substrate peptide AAVHEYLSA, ATP varied, 50 mM HEPES pH 7.5, 150 mM NaCl, 4 mM MgCl2, 0.01% Triton X-100, 1% DMSO, ambient temperature

“BceF kinase domain (Burkholderia cepacia)” gave a Km of 123.06 ± 13.78 µM, a Vmax of 0.183 µM/min and a kcat of 0.000902 s⁻¹. For the same substance, the kcat/Km was 6.67 M⁻¹ s⁻¹.
